The target of assay [1] is T1, ATP-dependent translocase ABCB1 (Homo sapiens, UniProt P08183).
The target in assay [2] is T1, ATP-dependent translocase ABCB1. This is another data set of the same source.
The target is the same in assay [3]. The source holds these as a separate data set.

The chains behind the UniProt entries cited, without tags or fusion partners.
UniProt P08183, whole entry: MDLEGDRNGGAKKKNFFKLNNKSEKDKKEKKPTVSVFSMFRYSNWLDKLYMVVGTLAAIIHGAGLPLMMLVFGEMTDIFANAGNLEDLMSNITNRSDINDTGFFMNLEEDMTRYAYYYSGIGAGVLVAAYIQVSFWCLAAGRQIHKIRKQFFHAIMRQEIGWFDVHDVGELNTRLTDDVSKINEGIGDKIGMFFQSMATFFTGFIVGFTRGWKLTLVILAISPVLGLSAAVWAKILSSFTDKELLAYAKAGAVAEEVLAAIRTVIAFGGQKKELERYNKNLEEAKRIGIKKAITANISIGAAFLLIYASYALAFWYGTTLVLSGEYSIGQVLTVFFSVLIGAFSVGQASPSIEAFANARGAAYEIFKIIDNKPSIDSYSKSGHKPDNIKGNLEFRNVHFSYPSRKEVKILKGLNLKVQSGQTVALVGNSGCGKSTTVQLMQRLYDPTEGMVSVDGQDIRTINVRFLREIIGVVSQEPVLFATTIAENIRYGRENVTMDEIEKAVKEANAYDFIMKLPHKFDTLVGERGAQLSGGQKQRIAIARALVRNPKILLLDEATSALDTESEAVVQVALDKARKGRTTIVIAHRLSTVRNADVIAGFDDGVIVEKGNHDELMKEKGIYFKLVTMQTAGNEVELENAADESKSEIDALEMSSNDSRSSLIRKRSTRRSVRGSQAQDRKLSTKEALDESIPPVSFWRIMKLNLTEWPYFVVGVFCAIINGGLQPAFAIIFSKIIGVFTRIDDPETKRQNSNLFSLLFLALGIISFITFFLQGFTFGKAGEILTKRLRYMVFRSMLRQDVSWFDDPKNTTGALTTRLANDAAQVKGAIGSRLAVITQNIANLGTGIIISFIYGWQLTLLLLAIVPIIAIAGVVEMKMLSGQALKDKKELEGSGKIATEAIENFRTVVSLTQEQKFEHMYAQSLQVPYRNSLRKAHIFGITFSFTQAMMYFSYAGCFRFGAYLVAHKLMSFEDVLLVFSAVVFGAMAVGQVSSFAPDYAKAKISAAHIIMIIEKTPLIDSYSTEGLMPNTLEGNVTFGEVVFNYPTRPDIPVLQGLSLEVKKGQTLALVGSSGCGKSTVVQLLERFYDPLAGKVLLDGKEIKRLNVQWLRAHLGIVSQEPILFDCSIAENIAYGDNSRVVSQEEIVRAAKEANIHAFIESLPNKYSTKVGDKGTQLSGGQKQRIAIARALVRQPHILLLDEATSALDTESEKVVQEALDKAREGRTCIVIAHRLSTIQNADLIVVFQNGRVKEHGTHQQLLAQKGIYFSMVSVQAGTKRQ

SMILES strings stand for the structures. pIC50: −log10 of the molar value.

Broadly, the pIC50 is the negative decadic logarithm of the IC50, by convention in mol/L. A higher pIC50 goes with a low IC50. Regarding `CC(=O)[C@H]1CC[C@H]2[C@@H]3CCC4=CC(=O)CC[C@]4(C)[C@H]3CC[C@]12C` [PROGESTERONE], the figures for the pIC50 in assay [1], in assay [2] and in assay [3] were 4.02, 3.72 and 4.06, respectively.

As for `CN1CCN(CCCN2c3ccccc3Sc3ccc(C(F)(F)F)cc32)CC1` [TRIFLUOPERAZINE], the results for the pIC50 in assay [1], in assay [2] and in assay [3] were 5.14, 4.96 and 5.20, respectively.

(Values after ChEMBL document CHEMBL2074145, “Active transport of fluorescent P-glycoprotein substrates: evaluation as markers and interaction with inhibitors” (Biochem Biophys Res Commun, 2001).)
